This experiment deals with mTOR (Homo sapiens, UniProt P42345+P62942). Kind of experiment: mTOR TR-FRET kinase assay (phosphorylation of GFP-4E-BP1). The format is biochemical. To be noted: read-out: IC50 mTOR inhibition, 10 μM ATP, 0.4 μM GFP-4E-BP1.

The chains behind the UniProt entries cited, without tags or fusion partners. Residues count along the entry.
UniProt P42345, 1360-2549 limits assumed: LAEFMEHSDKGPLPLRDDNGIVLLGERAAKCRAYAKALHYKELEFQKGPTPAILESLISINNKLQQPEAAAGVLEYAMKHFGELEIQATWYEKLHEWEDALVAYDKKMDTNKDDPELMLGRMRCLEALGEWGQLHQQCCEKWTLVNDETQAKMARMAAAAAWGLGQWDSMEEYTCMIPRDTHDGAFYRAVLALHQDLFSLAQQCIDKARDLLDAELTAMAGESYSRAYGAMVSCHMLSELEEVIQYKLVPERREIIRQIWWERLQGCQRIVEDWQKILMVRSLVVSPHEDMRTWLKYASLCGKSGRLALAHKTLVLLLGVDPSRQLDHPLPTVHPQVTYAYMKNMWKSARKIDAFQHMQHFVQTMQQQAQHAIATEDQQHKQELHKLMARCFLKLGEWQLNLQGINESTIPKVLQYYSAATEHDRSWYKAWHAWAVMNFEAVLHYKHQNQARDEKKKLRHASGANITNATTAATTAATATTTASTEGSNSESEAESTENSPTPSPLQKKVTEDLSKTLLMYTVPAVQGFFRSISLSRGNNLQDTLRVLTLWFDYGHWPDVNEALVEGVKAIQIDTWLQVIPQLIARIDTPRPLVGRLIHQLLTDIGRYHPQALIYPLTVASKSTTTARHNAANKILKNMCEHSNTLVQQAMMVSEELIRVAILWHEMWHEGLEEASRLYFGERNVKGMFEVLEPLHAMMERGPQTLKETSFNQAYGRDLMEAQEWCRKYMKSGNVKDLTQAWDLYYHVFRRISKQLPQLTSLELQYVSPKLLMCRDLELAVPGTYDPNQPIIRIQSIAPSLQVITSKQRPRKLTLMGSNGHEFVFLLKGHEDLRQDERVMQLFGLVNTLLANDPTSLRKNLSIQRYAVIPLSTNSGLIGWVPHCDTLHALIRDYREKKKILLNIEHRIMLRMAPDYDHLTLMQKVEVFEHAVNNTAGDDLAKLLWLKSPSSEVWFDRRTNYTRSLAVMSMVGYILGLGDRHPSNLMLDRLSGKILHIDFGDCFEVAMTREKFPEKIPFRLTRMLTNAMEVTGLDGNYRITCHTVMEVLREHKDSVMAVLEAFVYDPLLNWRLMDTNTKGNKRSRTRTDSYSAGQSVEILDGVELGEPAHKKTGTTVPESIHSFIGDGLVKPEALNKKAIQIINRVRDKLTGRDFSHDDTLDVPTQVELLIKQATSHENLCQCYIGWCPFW
UniProt P62942, whole entry: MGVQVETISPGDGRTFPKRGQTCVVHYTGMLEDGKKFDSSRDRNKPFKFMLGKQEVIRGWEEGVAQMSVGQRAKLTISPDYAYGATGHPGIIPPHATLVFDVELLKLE

The structures appear in SMILES notation.

Take `CO[C@H]1C[C@@H]2CC[C@@H](C)[C@@](O)(O2)C(=O)C(=O)N2CCCC[C@H]2C(=O)O[C@H]([C@H](C)C[C@@H]2CC[C@@H](OCc3cn(CC(C)(CO)CO)nn3)[C@H](OC)C2)CC(=O)[C@H](C)/C=C(\C)[C@@H](O)[C@@H](OC)C(=O)[C@H](C)C[C@H](C)/C=C/C=C/C=C/1C`: the IC50 is over 10 µM.

These data come from patent publication US20150051242A1, “RAFAMYCIN ANALOGS AND METHODS FOR MAKING SAME” (HANGZHOU ZYLOX PHARMA CO., LTD, priority 2012, published 2015).
